These results are taken from ChEMBL document CHEMBL1124221, “Highly selective kappa opioid analgesics. Synthesis and structure-activity relationships of novel N-[(2-aminocyclohexyl)aryl]acetamide and N-[(2-aminocyclohexyl)aryloxy]acetamide derivatives” (1988).

Chains of the proteins cited; added tags and fusions are not shown. Lines headed by an entry give the natural chain unless they say otherwise; changes in a name come on top.
UniProt P41145: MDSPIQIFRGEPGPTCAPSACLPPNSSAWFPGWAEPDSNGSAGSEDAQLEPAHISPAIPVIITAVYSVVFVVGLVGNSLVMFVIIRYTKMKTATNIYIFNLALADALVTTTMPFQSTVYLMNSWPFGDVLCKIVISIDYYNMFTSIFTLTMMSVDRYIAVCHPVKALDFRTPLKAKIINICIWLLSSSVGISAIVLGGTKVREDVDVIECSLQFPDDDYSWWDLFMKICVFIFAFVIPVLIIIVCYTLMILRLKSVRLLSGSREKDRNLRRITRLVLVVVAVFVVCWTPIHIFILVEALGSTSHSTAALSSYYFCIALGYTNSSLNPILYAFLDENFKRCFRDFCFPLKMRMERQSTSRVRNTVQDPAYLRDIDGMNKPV
UniProt P35372, whole entry, looked up: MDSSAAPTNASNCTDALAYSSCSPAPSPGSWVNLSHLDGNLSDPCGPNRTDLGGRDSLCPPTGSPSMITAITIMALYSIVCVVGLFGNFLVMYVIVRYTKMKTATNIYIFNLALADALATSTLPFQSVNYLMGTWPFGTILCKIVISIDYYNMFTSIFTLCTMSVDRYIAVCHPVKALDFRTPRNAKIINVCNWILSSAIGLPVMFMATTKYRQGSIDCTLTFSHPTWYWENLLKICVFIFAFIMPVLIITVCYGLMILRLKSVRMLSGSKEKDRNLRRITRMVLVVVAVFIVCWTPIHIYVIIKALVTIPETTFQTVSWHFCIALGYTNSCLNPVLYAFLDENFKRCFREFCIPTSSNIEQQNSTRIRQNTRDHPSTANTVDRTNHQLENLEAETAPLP

Each structure is given as a SMILES string.

The first test concerns the target T1, Opioid receptors; mu & kappa (Homo sapiens) (UniProt P41145+P35372). Kind of test: Ratio of Ki at mu-opioid receptor to Ki at kappa oioid receptor. To be noted: Cavia porcellus.
Turning to `CN(C(=O)Cc1c[nH]c2ccccc12)[C@@H]1CCCC[C@H]1N1CCCC1`, the Ratio turned out to be 39.

On to `CN(C(=O)Cc1cccc2sccc12)[C@@H]1CCCC[C@H]1N1CCCCCC1`, for which the Ratio was determined as 20. Same read-out and setting: for `CN(CCc1cccs1)[C@@H]1CCCC[C@H]1N(C)C(=O)Cc1cccc2sccc12` the value was 0.99; for `CN(CCc1ccccc1)[C@@H]1CCCC[C@H]1N(C)C(=O)Cc1cccc2sccc12`, 0.87. Same read-out and setting: to `C=CCN(C)[C@@H]1CCCC[C@H]1N(C)C(=O)Cc1cccc2sccc12` belongs 4; to `CN(C(=O)Cc1ccc(Cl)c(Cl)c1)C1CCC2(CCCO2)CC1N1CCCC1` (stereo not given), 380; to `CN(C(=O)Cc1ccc(Cl)c(Cl)c1)C1CCCCC1N1CCCC1` (stereo not given), 88. The same measure, in the same setting: to `CN(CC1CC1)[C@@H]1CCCC[C@H]1N(C)C(=O)Cc1cccc2sccc12` belongs 0.95. With `CN(C(=O)Cc1cccc2sccc12)[C@@H]1CCCC[C@H]1N1CCCC1`, the Ratio came to 100.

For `CN(C(=O)Cc1ccccc1)[C@H]1CC[C@@]2(CCCO2)C[C@@H]1N1CCCC1`, the Ratio is 7.1.

In a further test the target is T1, Opioid receptors; mu & kappa (Homo sapiens). The experiment in a line: Ratio of Ki at mu-opioid receptor to Ki at kappa opioid receptor. As to conditions: Cavia porcellus.
For `CC[C@@]12CCN(CC3CC3)C(C(=O)c3ccc(O)cc31)[C@@H]2C`, the Ratio amounted to 3. On the same count and under the same terms, to `CN(C(=O)Cc1cccc2sccc12)[C@@H]1CCCC[C@H]1N1CCCCC1` belongs 9.6. Still for that read-out and setting: to `CCN(CC)[C@@H]1CCCC[C@H]1N(C)C(=O)Cc1cccc2sccc12` belongs 0.19. The same measure, in the same setting: to `CN(C(=O)Cc1cccs1)[C@@H]1CCCC[C@H]1N1CCCC1` belongs 25; to `CN(C(=O)Cc1cccc2occc12)[C@@H]1CCCC[C@H]1N1CCCCCC1`, 120.
